High-throughput results as filed in PubChem BioAssay.
IL-2 act – activators of IL-2; IL-2 activation reporter assay, cell-based qHTS; stimulated with anti-CD3/CD4/CD28 beads; in transgenic mouse T cells; activation, % (series mostly up to about 46 µM); 0.065% of 360,000 active; in the data active = activation above about 50%; inconclusive = mostly about 30% to 49%; note: 0% is about no effect
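Quantitative HTS in unstimulated transgenic mouse T cells, with memory T cells as non-tolerant control and PMA/ionomycin as tolerance-bypass control. Compound pretreatment lasted 60 minutes before 18 h bead stimulation; EGFP/DsRed fluorescence read.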
Nrf2 ARE act – activates Nrf2 signaling; AREc32 ARE-luciferase reporter (MCF7-derived line), luminescence, 24 h; Potency, µM (top dose mostly 46.1 µM), for inactives: at the top dose activation, most hits filed as activators; 0.31% of 410,000 active; AID 624171; note: potency is the fitted concentration of half-maximal effect; % of control where 0% means no effect; nearly all actives have a fitted effect of over 65% in size
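Each well held 1000 AREc32 cells, which were incubated with compound for 24 hr at 37 deg C after overnight attachment, and ARE reporter activity was quantified by firefly luciferase luminescence.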
ClpP mod – qHTS Assay for Activators of ClpP; ATP-dependent Clp protease proteolytic subunit (Bacillus subtilis (strain 168)), P80244; purified B. subtilis ClpP, FRET peptide cleavage, 20 min; Potency, µM (highest dose often 57.5 µM), inactives show at the highest dose activity change, negative = active; 1.9% of 340,000 active; AID 651965, 2013; active = well fitted falling curve with a large enough effect; inconclusive = small, poorly fitted or top-dose-only effect; inactive = no such curve, though single readings can be large or run the other way; note: potency is the fitted concentration of half-maximal effect; the source files actives as falling curves though it sought activators and does not explain the sign; nearly all actives have a fitted effect of over 65% in size
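Buffer: 100 mM Tris/HCl pH8, 100 mM KCl, 0.05% low protease BSA, 2.5% glycerol, 0.01% Tween-20. ClpP 10 microg/mL final; 20 min RT; delta FRET normalized to ADEP and DMSO controls.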
A549 tox – kills or reduces viability of A549 cells in Nrf2 counter-screen | AID 504648 | Potency, µM (doses to about 46 µM), without a hit: top-dose activity change, negative = cytotoxicity, most hits filed as inhibitors | A549 ARE-Fluc cells, CellTiter-Fluor viability, 18-24 h | 0.16% of 390,000 active; note: potency is the fitted concentration of half-maximal effect; % is set by controls: 0 for no effect and ±100 for the full control effect
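A549 ARE_Fluc cells in 5% FBS OPTI-MEM were exposed to compounds in concentration-response for 18-24 h at 37 deg C. Viability was read by CellTiter-Fluor fluorescence (Ex 405/Em 525) after 30 min, before the luciferase read.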
Nrf2 inh – inhibitors of Nrf2 signaling | 2.1% of 360,000 active | Potency, µM (highest dose often 46 µM), inactives show at the top dose activity change, negative = inhibition, actives largely listed as inhibitors | A549 ARE-Fluc reporter, luciferase luminescence, 18-24 h; note: potency is the fitted concentration of half-maximal effect; % is set by controls: 0 for no effect and ±100 for the full control effect; nearly all actives have a fitted effect of over 60% in size
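Concentration-response testing used A549 ARE_Fluc cells at 5000 cells/well. Following an 18-24 h compound incubation, viability was read by fluorescence (Ex 405/Em 525) and luciferase output by luminescence.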
miR-21 reporter – miR-21 reporter, rising signal; HeLa miR-21 FLuc reporter, luciferase, 48 h; Potency, µM (titrated, usually from 38.3 µM), without a hit: top-dose reporter change, positive = more light; AID 2288; 340,000 tested, under 10 active; active = well fitted rising curve with a large enough effect; inconclusive = small, poorly fitted or top-dose-only effect; inactive = no such curve, though single readings can be large or run the other way;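 further: % of control where 0% means no effect; miR-21 action dims this reporter so a rising signal means less miR-21 action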
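Compounds were titrated across several concentrations (up to approximately 40 uM) and incubated 48 hours with HeLa miR-21-FLuc reporter cells (miR-21 target sequence downstream of FLuc, endogenous miR-21). Readout was firefly luciferase luminescence after lytic detection reagent.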
* marks the source's active call; other numbers are inactive results; ? = inconclusive; nt = no result. The list is not random: actives were taken first. Their share in the collection is about 3.7%. Unless noted, calls come from the whole dose curve; as a rule, active = well fitted curve in the direction sought with a large enough effect; inconclusive = small, poorly fitted or top-dose-only effect, or another doubt; inactive = no such curve, though single readings can be large; an effect the other way counts as inactive or inconclusive.

Sequences of proteins named here, by UniProt entry; tags and fusion partners are left off.
ATP-dependent Clp protease proteolytic subunit (Bacillus subtilis (strain 168)), P80244, UniProt P80244, whole entry, looked up: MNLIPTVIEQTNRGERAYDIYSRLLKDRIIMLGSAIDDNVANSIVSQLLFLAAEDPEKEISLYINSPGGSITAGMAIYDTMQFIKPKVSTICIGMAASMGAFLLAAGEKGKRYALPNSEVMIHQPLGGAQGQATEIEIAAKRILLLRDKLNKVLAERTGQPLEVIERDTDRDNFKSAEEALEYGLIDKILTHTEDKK

1. COC(=O)c1[nH]c2ccc(C)cc2c1NC(=O)Oc1ccccc1
2. CCOc1ccc(CCNC(=O)c2cnc3sc(N4CCCC4)nn3c2=O)cc1
3. CCCC1=Nc2cc(C(=O)NCCc3ccc(OCC)cc3)ccc2Sc2ccccc21
4. COc1ccc(N2CCN(C(=O)C3CCCN(S(=O)(=O)c4ccc5c(c4)CCCN5C(C)=O)C3)CC2)cc1 (stereo not given)
5. CC(=O)N1CCc2cc(S(=O)(=O)N3CCN(c4ccc(C)cc4)C(C)C3)ccc21 (stereo not given)
6. COc1ccc(-c2c3c(=O)n(C)c(=O)n(C)c3c3n2-c2ccccc2NC3c2ccccc2OC)cc1 (stereo not given)
7. COc1ccc(NS(=O)(=O)c2ccc3c(c2)oc(=O)n3C)cc1Cl
8. C[C@]12CCC3C(CC[C@H]4C[C@@H](O)CC[C@]34C)[C@H]1C=CC2=O (stereo not given in full)

assay / compound | 1 | 2 | 3 | 4 | 5 | 6 | 7 | 8
IL-2 act | 0 | nt | nt | nt | nt | nt | -1 | 2
Nrf2 ARE act | 2% | -1% | 0% | 0% | -1% | -1% | 2% | 22µM*
ClpP mod | 35µM* | ? | 0% | -1% | -2% | ? | -4% | -1%
A549 tox | -1% | -15% | -6% | 2% | -17% | 8% | 0% | -1%
Nrf2 inh | 17% | 12µM* | ? | nt | 16µM* | 0% | 15µM* | ?
miR-21 reporter | -27% | 5% | 29% | ? | 7% | -6% | 10% | nt

9. O=C1CC=C2C3CC4N(CCC45c4ccccc4N1C25)CC3=CCO (stereo not given)
10. O=C1CC=C2C3CC4N(CCC45c4cc(O)c(O)cc4N1C25)CC3=CCBr (stereo not given)
11. Cc1ccc(C)c(CN2C(=O)c3ccccc3S(=O)(=O)c3ccc(C(=O)N4CCCCCC4)cc32)c1
12. Cc1ccc(CN2C(=O)c3ccccc3Sc3ccc(C(=O)N4CCC5(CC4)OCCO5)cc32)cc1
13. Cc1ccc2c(c1)CC1(CN2C)C(=O)NC(=O)N(CCC2=CCCCC2)C1=O (stereo not given)
14. O=C(Nc1ccc(OC(F)(F)F)cc1)C1CCN(S(=O)(=O)c2cccs2)CC1
15. CC1(C)c2[nH]c3ccccc3c2C[C@@H]2C(=O)N(Cc3ccccc3F)C(=O)N21
16. CC1(C)c2[nH]c3ccccc3c2C[C@H]2C(=O)N(Cc3ccccc3F)C(=O)N21

assay / compound | 9 | 10 | 11 | 12 | 13 | 14 | 15 | 16
IL-2 act | -2 | -1 | nt | nt | 0 | nt | 0 | 0
Nrf2 ARE act | 0% | 2% | 5% | -1% | 0% | 5% | 6% | 2%
ClpP mod | -5% | 35µM* | -3% | -1% | 16µM* | -2% | nt | nt
A549 tox | 1% | -3% | -28% | -11% | -11% | -11% | 8% | ?
Nrf2 inh | 10% | 5% | 21µM* | nt | 7% | ? | 0% | 23µM*
miR-21 reporter | nt | nt | 23% | 5% | -3% | ? | nt | nt

17. O=[N+]([O-])c1cc(C(F)(F)F)c(Cl)c([N+](=O)[O-])c1Nc1ncc(C(F)(F)F)cc1Cl
18. COC(=O)C1=C(c2ccc(F)cc2OCc2ccccc2)C[C@@H]2CC[C@H]1N2C(=O)NC1Cc2ccccc2C1
19. COC(=O)C1=C(c2ccccc2OCc2ccccc2)C[C@@H]2CC[C@H]1N2C(=O)NCc1ccc(F)cc1
20. COC(=O)C1=C(c2ccccc2OCc2ccccc2)C[C@@H]2CC[C@H]1N2C(=O)NCc1ccc(C(C)(C)C)cc1
21. COC(=O)C1=C(c2ccc(F)cc2OCc2ccccc2)C[C@@H]2CC[C@H]1N2C(=O)NCCCc1ccccc1
22. COc1cccc(CSc2nc(-c3ccccc3OC)nc3c2Cc2c(CO)cnc(C)c2O3)c1
23. CCOC(=O)CCCc1cc[c]([Sb](=[O])([OH])[OH])cc1
24. COC(=O)C1=C(c2ccc(F)cc2OCc2ccccc2)C[C@@H]2CC[C@H]1N2C(=O)NCc1ccc(C)cc1

assay / compound | 17 | 18 | 19 | 20 | 21 | 22 | 23 | 24
IL-2 act | nt | -3 | -3 | -2 | -4 | nt | nt | -1
Nrf2 ARE act | nt | -1% | -1% | -1% | -1% | 3% | nt | 0%
ClpP mod | -1% | -5% | -3% | -2% | 0% | -4% | -3% | -5%
A549 tox | nt | -17% | ? | -12% | -17% | -12% | -2% | ?
Nrf2 inh | nt | 16µM* | 23µM* | 21µM* | 16µM* | ? | 0% | 15µM*
miR-21 reporter | nt | nt | nt | nt | nt | 0% | nt | nt

3 entries from above in a different format:
(4) COc1ccc(N2CCN(C(=O)C3CCCN(S(=O)(=O)c4ccc5c(c4)CCCN5C(C)=O)C3)CC2)cc1 (stereo not given)
  IL-2 act: nt
  Nrf2 ARE act: 0%
  ClpP mod: -1%
  A549 tox: 2%
  Nrf2 inh: nt
  miR-21 reporter: ?

(6) COc1ccc(-c2c3c(=O)n(C)c(=O)n(C)c3c3n2-c2ccccc2NC3c2ccccc2OC)cc1 (stereo not given)
  IL-2 act: nt
  Nrf2 ARE act: -1%
  ClpP mod: ?
  A549 tox: 8%
  Nrf2 inh: 0%
  miR-21 reporter: -6%

(22) COc1cccc(CSc2nc(-c3ccccc3OC)nc3c2Cc2c(CO)cnc(C)c2O3)c1
  IL-2 act: nt
  Nrf2 ARE act: 3%
  ClpP mod: -4%
  A549 tox: -12%
  Nrf2 inh: ?
  miR-21 reporter: 0%

Following part.
25. CNC(=O)Oc1ccc(-c2cn3cc(C)ccc3n2)cc1
26. CCC(=Nc1ccc2c(c1)CCC2)c1c(O)n(C)c(=O)n(C)c1=O
27. CCOC(=O)c1ccc(N=C(CC)c2c(O)n(C)c(=O)n(C)c2=O)cc1
28. CCc1nn2c(=O)c(C)c(N3CCNCC3)nc2s1
29. O=C(C1CCCN(S(=O)(=O)c2cccc3nsnc23)C1)N1CCC2(CC1)OCCO2 (stereo not given)
30. Cc1ccc(C)c(N2CCN(C(=O)C3CCCN(S(=O)(=O)c4cccc5nsnc45)C3)CC2)c1 (stereo not given)
31. Cc1cc(N2CCCCC2)nc2ccc(NC(=O)/C=C/c3ccc(OC(C)C)cc3)cc12
32. Cc1cc(C)c(C(=O)CN2CCOCC2)c(C)c1

assay / compound | 25 | 26 | 27 | 28 | 29 | 30 | 31 | 32
IL-2 act | 0 | -1 | -1 | nt | -2 | nt | nt | -1
Nrf2 ARE act | -3% | -1% | 1% | nt | 0% | 0% | 0% | ?
ClpP mod | 13µM* | -2% | 25µM* | nt | 0% | 1% | -5% | 32µM*
A549 tox | ? | 2% | 0% | -11% | 0% | -7% | -9% | 1%
Nrf2 inh | 1.2µM* | ? | -11% | -3% | 6% | 16µM* | ? | nt
miR-21 reporter | ? | -1% | -7% | nt | -1% | -3% | 18% | 13%

33. Cc1ccc(NC(=O)Nc2ccc3nc(N4CCN(C)CC4)cc(C)c3c2)cc1F
34. CC(Oc1ccc(Cl)cc1Cl)C(=O)Nc1ccc(S(=O)(=O)Nc2cnc3ccccc3n2)cc1 (stereo not given)
35. CCOC(=O)c1cccc(NC(=O)c2cnc(N3CCCCC3)c3ccccc23)c1
36. CCOC(=O)c1ccc(NC(=O)c2sc3nc4c(cc3c2N)N2CCC4CC2)cc1
37. Cc1cccc(CN2CCc3nc(N4CCN(c5ccccn5)CC4)ncc3C2)c1
38. CNCCc1ccccc1
39. OCc1cccc[n+]1CCc1ccccc1
40. O=C(C1CCN(S(=O)(=O)c2ccc(Br)s2)CC1)N1CCN(c2ccc(F)cc2)CC1
41. COC(=O)C12CCc3c(ccc4cc(OC)ccc34)C1=CC(=O)C2 (stereo not given)

assay / compound | 33 | 34 | 35 | 36 | 37 | 38 | 39 | 40 | 41
IL-2 act | nt | 1 | nt | nt | nt | nt | -1 | nt | -5
Nrf2 ARE act | 6% | 4% | 0% | -1% | 3% | nt | 0% | -1% | 4%
ClpP mod | 4% | 16µM* | 28µM* | -20% | 55% | nt | nt | -1% | 28µM*
A549 tox | -26% | -13% | -6% | 0% | -15% | nt | -2% | -7% | ?
Nrf2 inh | 14% | ? | nt | 11% | nt | nt | 7.3µM* | ? | -2%
miR-21 reporter | ? | -26% | 16% | ? | ? | 2% | nt | -2% | nt
